Reference: PubChem BioAssay AID588493 (Sanford-Burnham Center for Chemical Genomics, 2011)
This is a selection; strong and weak results do not stand in their true shares. Active and inactive are the calls of the source.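 The calls were made as follows: active = inhibition at 20 µM, scaled to each plate's controls, above about 33% (limit read from the data); inactive = the rest.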

By UniProt entry, the sequences of proteins in these tests, tags left out.
UniProt O00487, whole entry: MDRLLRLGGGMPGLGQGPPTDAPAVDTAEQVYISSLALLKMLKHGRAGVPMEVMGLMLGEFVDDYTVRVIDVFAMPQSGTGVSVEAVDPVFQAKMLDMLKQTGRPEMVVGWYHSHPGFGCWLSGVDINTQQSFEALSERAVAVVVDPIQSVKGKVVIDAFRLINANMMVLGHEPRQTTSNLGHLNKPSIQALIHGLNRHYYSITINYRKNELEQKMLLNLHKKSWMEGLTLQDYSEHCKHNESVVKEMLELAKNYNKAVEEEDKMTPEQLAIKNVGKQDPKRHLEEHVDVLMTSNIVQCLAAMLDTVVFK

Molecular target: 26S proteasome non-ATPase regulatory subunit 14 (Homo sapiens) (UniProt O00487)
Assay: inhibition of 26S proteasome subunit Rpn11 – biochemical, fluorescence polarization, uHTS, primary screen (AID 588493)
Conditions: human 26S proteasome, Ub4-pepOG fluorescence polarization; at 20 µM; hits give high values; 20S core pre-blocked with epoxomicin

SMILES | inhibition
CCC(=O)N(c1ccccc1)C1(COC)CCN(CCn2nnn(CC)c2=O)CC1 | inactive: 2.5%
CCC(=O)N(c1ccccc1)C1(COC)CCN(CCc2cccs2)CC1 | inactive: 2.6%
